Biological target: Mrc1-(651–900) (S. pombe) (UniProt Q9P7T4)
Assay: mass photometry; Refeyn TwoMP; 10–20 nM of the samples eluted from the Superdex 200 column; 20 mM HEPES-KOH pH 7.5, 500 mM NaCl

The chains behind the UniProt entries cited, without tags or fusion partners. Residues count along the entry.
UniProt Q9P7T4, 651-900: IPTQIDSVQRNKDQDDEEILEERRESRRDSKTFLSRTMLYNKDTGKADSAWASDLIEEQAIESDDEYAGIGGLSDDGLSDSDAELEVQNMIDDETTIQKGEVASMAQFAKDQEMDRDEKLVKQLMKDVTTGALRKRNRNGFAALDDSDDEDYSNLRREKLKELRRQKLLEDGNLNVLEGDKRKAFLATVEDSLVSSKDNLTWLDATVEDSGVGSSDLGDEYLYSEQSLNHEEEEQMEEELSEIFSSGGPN

Substance “histone H3-H4 tetramer (from UniProt P09988 1-136; P09322 1-103) (complex)” has a stoichiometry N (Mrc1-like domain per H3-H4 tetramer) of 1.

From PMC11380579
